# Results reported in PubChem BioAssay AID1259370 (Center for Chemical Genomics, University of Michigan, 2018).
# Sequences of proteins named here, by UniProt entry; tags and fusion partners are left off. A change or cut given only in a name is not applied to a line headed by its entry.
# UniProt P30305: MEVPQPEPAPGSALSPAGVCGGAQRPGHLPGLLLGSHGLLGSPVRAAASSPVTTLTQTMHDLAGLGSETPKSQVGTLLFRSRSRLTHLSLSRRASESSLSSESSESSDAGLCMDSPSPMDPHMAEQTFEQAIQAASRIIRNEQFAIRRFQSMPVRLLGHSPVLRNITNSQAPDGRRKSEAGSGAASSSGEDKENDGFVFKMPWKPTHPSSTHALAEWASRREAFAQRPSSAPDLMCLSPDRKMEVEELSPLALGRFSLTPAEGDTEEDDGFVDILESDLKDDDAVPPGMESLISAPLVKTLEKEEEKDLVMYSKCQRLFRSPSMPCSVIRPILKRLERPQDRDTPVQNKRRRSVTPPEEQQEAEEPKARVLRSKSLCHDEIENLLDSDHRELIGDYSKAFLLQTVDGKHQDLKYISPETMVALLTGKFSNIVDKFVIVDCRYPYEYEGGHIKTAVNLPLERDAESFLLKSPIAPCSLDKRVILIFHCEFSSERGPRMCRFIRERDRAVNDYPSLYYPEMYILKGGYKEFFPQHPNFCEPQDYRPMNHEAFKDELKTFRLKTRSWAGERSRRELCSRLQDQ
# UniProt P20248, whole entry, looked up: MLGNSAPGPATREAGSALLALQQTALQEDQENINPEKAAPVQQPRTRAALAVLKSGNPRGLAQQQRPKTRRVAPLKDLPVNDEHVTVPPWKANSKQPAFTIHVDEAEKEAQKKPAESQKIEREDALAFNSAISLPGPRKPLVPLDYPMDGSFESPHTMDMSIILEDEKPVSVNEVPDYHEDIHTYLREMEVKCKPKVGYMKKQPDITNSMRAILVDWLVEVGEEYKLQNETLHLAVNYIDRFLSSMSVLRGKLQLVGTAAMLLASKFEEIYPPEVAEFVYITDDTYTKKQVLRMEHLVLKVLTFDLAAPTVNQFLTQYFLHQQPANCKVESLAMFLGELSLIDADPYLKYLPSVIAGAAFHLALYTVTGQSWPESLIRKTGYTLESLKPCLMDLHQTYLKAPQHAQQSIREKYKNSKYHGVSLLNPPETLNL
# The list shows a part of the results, in another mix than the full data. The source made the active and inactive calls. Rule as the data show it: active = z-score above about 3.2; inactive = the rest.
# Molecular target: M-phase inducer phosphatase 2 (Homo sapiens) + Cyclin-dependent kinase 2 (Homo sapiens) + Cyclin-A2 (Homo sapiens) (UniProt P30305+P24941+P20248)
# Assay: primary biochemical HTRF screen for blockers of M-phase inducer phosphatase 2 binding to CDK2/cyclin A (AID 1259370)
# Conditions: HTRF CDC25B-CDK2/CyclinA binding, anti-His/anti-Flag; hits give high values
row,SMILES,z-score
1,CN(C(=O)Cc1ccc(Cl)c(Cl)c1)[C@@H]1CCCC[C@@H]1N1CCCC1,active: 3.92
